For one molecule, Ratio Ki results are on record in ChEMBL document CHEMBL2424523, “2,3,9- and 2,3,11-trisubstituted tetrahydroprotoberberines as D2 dopaminergic ligands” (Eur J Med Chem, 2013).

The species named for the experiment is Rattus norvegicus. Briefly: Selectivity ratio of Ki for dopamine D1 receptor in rat striatal membranes to Ki for dopamine D2 receptor in rat striatal membranes. The class given is cell membranes. The following applies: Membrane. The method in brief:
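Ratio Ki(D1)/Ki(D2) from striatal membrane displacement assays: [3H]SCH 23390 at 0.25 nM (D1) and [3H]raclopride at 0.5 nM (D2), each incubated 1 h at 25 °C, with filtration and scintillation counting. Ki data are from 3-5 experiments.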

As to `Oc1cc2c(cc1O)C1Cc3cccc(O)c3CN1CC2` (stereo unspecified), the Ratio Ki was 40.6.
